In PubChem BioAssay AID588405 (Sanford-Burnham Center for Chemical Genomics, 2011):
This is a selection; strong and weak results do not stand in their true shares. Some results for these compounds are left out of this collection, so the calls shown say nothing about other tests. Calls of active or inactive are those of the source.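 How the source made its calls: active means inhibition of at least 50% at 20 µM; inactive means the rest.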

assay: inhibition of PEG-3 promoter activity – cell-based, HeLa, luciferase luminescence, primary screen (AID 588405); details: HeLa PEG-Prom luciferase reporter, overnight, at 20 µM, stronger effect = higher value

| SMILES | inhibition |
| --- | --- |
| COc1cccc(C(=O)NCC2(N3CCCCC3)CCCCC2)c1 | inactive: 0.53% |
| COc1ccc(Cl)cc1C(=O)NCC1(N(C)C)CCCCC1 | inactive: 5.81% |
| O=C(NCC1(N2CCCCC2)CCCCC1)c1cccc(Cl)c1 | inactive: 6.83% |
| CN(C)C1(CNC(=O)c2ccc(Br)cc2)CCCCC1 | inactive: 7.53% |
| COc1cc(C(=O)NCC2(N(C)C)CCCCC2)c([N+](=O)[O-])cc1OC | inactive: -2.97% |
| COc1ccc(Br)c(C(=O)NCC2(N3CCCCC3)CCCCC2)c1 | inactive: -1.2% |
| C=C(C)C#CC(O)(C(=O)OC1CCN(C)CC1)c1ccccc1 (stereo unspecified) | inactive: -2.93% |
| CN(C)c1cccc(C(=O)NCC2(N(C)C)CCCCC2)c1 | inactive: -1.21% |
| CC(C)Oc1ccc(C(=O)NCC2(N(C)C)CCCCC2)cc1 | inactive: 14.2% |
| O=C(OCCN1CCCC1)C(O)(c1ccccc1)c1ccccc1 | inactive: -5.23% |
| O=C(OC1CN2CCC1CC2)C(CO)(c1ccccc1)c1ccccc1 (stereo unspecified) | inactive: 14.1% |
| CC(C)N1C(=O)CC2(CCN(CCOC(=O)C(O)(c3ccccc3)c3ccccc3)CC2)C1=O | inactive: 11.2% |
| CCN(CC)CC(C)C(C)OC(=O)C(O)(c1ccccc1)c1ccccc1 (stereo unspecified) | inactive: 5.62% |
| COc1cc(SC)ccc1C(=O)NCC1(N(C)C)CCCCC1 | inactive: 1.33% |
| Cc1ccc(C(=O)NCC2(N3CCCCC3)CCCCC2)cc1 | inactive: 16% |
| O=C(NCC1(N2CCCCC2)CCCCC1)c1cc([N+](=O)[O-])ccc1Cl | inactive: 7.1% |
| CN1[C@@H]2CC[C@H]1CC(OC(=O)C(O)(c1ccccc1)c1ccccc1)C2 (stereo partly specified) | inactive: 1.89% |
| C=CCN1CCN(CCOC(=O)C(O)(c2ccccc2)c2ccccc2)CC1 | inactive: 10.9% |
| O=C(NCC1(N2CCCCC2)CCCCC1)c1cc(F)c(F)cc1Cl | inactive: 13.2% |
| Cc1cc(C(=O)NCC2(N3CCCCC3)CCCCC2)ccc1[N+](=O)[O-] | inactive: -10.8% |
| CCN1CCCC(OC(=O)C2(O)c3ccccc3C=Cc3ccccc32)C1 (stereo unspecified) | inactive: -4.08% |
| O=C(NCC1(N2CCCCC2)CCCCC1)c1cccc(Br)c1 | inactive: 17.8% |
| COc1ccc(C(=O)NCC2(N(C)C)CCCCC2)cc1 | inactive: 2.84% |
| Cc1ccccc1C(=O)NCC1(N2CCCCC2)CCCCC1 | inactive: 6.62% |
| CN(C)C1CCCC1OC(=O)C(O)(c1ccccc1)c1ccccc1 (stereo unspecified) | inactive: -11.7% |
| CN(C)c1ccc(C(=O)NCC2(N(C)C)CCCCC2)cc1 | inactive: -11.4% |
